The source of these data is ChEMBL document CHEMBL1125805, “Cholecystokinin antagonists: (R)-tryptophan-based hybrid antagonists of high affinity and selectivity for CCK-A receptors” (J Med Chem, 1991).

By UniProt entry, the sequences of proteins in these tests, tags left out.
UniProt Q63931, whole entry: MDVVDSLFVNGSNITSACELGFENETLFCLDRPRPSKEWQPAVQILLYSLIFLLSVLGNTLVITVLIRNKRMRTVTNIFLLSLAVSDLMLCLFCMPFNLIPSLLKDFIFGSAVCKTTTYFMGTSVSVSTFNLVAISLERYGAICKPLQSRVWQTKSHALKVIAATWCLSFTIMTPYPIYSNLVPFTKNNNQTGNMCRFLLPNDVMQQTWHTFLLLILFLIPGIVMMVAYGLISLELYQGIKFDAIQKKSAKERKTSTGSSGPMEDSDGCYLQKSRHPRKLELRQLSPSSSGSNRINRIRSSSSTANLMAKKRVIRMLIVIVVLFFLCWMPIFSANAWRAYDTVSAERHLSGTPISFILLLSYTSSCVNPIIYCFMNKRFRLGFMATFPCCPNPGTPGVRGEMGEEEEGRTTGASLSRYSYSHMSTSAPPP

The target of the assay is Cholecystokinin receptor type A (Cavia porcellus, UniProt Q63931). The assay is described as follows: Inhibition of [125I]Bolton-Hunter CCK-8 binding to cholecystokinin type A receptor in guinea pig pancreatic membranes. In kind it is cell membranes.

The structures appear in SMILES notation. pIC50: −log10 of the molar value.

By pIC50 is commonly meant the negative decadic logarithm of the IC50, by convention in mol/L. High values mean a low IC50, low ones a high IC50. In turn, `CCCCCN(CCCCC)C(=O)C(Cc1c[nH]c2ccc(OCc3ccccc3)cc12)NC(=O)c1cnc2ccccc2c1` (stereo unspecified) had a pIC50 of 7.17.
